In article PMC11528232 one finds Kd data, which are given here for one substance.

By UniProt entry, the sequences of proteins in these tests, tags left out. Residues count along the entry.
UniProt P02745, 23-245: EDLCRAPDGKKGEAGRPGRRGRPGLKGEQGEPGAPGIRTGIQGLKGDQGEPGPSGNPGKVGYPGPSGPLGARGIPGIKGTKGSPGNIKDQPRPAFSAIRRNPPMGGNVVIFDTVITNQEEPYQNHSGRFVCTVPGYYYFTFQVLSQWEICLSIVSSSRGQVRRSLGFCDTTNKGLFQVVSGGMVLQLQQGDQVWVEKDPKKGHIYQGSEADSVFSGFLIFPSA
human C1q protein, UniProt P02746, 28-253: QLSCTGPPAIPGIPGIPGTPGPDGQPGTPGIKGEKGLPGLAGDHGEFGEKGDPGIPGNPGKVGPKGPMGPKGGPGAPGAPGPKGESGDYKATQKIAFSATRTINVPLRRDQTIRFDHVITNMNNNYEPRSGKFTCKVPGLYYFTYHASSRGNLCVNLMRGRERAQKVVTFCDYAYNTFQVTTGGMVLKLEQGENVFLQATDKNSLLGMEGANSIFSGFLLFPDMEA
human C1q protein, UniProt P02747, 29-245: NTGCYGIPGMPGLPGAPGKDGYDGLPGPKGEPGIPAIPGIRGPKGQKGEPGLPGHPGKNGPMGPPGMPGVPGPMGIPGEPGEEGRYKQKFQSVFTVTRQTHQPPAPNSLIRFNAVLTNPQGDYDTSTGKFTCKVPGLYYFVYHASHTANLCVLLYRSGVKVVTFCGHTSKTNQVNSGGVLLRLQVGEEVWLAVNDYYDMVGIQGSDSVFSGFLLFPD

The target of one assay is CMG901 (human). As to the kind of experiment: SPR.
For the next assay, the target named is CM311 (human). As to the kind of experiment: SPR.

In the case of “human C1q protein (from UniProt P02745 23-245; P02746 28-253; P02747 29-245) (complex)”, the results for the Kd in the assay with CMG901 (human) and with CM311 (human) were 116 nM and 47.9 nM, respectively.
